According to patent US20120088688A1, “IN VITRO ASSAY FOR IDENTIFICATION OF ALLERGENIC PROTEINS” (BIOVATOR TECHNOLOGIES AB, priority 2005, published 2012):

Test system: Mono Mac 6 cells
Assay: Micro array gene expression profiling (HG_U95Av2 chip) of Mono Mac 6 cells following allergen treatment
Format: cell-based, human
Details: for Number of up regulated genes: Mono Mac 6 cells
Experimental: The cell line Mono Mac 6 (AstraZeneca Cell Storage and Retrieval, Alderley Park, UK) was cultivated in RPMI 1640 medium with 10 mM HEPES buffer (Gibco, UK), 2 mM L-glutamine, 9 μg/mL human insulin, 1.0 mM sodium pyruvate, 10% fetal bovine serum, 5.6 μl/mL glucose, 100 U/mL penicillin and 100 μg/ml streptomycin. Fresh medium for cultivation was added or changed frequently (every 2:nd or 3:rd day), maintaining a cell density of viable cells/mL between 0.5×10^6 and 1.0×10^6. The cell line was in suspension/loosely adherent and sub cultures were prepared when needed by scraping. The plates were cultivated in an inclined position at 37° C. and 5% CO2 in a Galaxy R (Lab Rum Klimat Ab, Sweden) incubator
Cells were treated with four different allergens, according to table 2, in duplicate cultures. The test substances were all diluted in double distilled water. The duplicate cultures were treated at different exposure days. All treatments were 6 hours and control cells were left unexposed.
Benzylpenicillin sodium salt (PenicillinG) was 13752, Sigma Aldrich, Germany; Albumin human was A9511, Sigma Aldrich, Germany and Aspergillus fumigatus was ALK15142 from Apoteket, Sweden and contained, except relevant allergen, also glycerol, sodium chloride, sodium hydrogen carbonate and water for injection^33. 20 individual cultures with 500 000 cells per culture were treated identical for each substance. After 6 h exposure identical treated cells were harvest and pooled into a 50 ml Falcontube, pelleted at 540 g for 5 minutes in 7° C. The supernatant was discarded and the cells were washed in phosphate-buffered saline (with 0.5% bovine serum albumin), transferred to an eppendorftube and centrifuged at 150 g for 2 minutes at room temperature. The supernatant was removed and the cells were freeze-dried with liquid nitrogen and thereafter put into −152° C. freezer until further preparation.
Experimental procedures were performed according to Gene Chip®Expression Analysis Technical Manual (rev1, 2001) with minor modifications as described. Total RNA was prepared from frozen cells, according to Qiagen Rneasy Mini kit (Qiagen/WVR, Sweden). 30 μg of total RNA was used for cDNA synthesis and in vitro transcript labeling with biotin was performed according to Enzo BioArray RNA Transcription Labeling Kit (Enzo, U.S.A). cRNA quality was analyzed on a Agilent Bioanalyser 2001 (Agilent Technologies, U.S.A) and the concentration was measured on a Nano Droop (Saveen Werner, Sweden). 15 μg of fragmented cRNA was added to the hybridization-cocktail and hybridized to the HG_U95Av2 chip (Affymetrix, U.S.A) for 16 h at 45° C. The arrays were washed and stained with biotinylated anti streptavidin antibodies according to the EukGE_W2v4 protocol (Affymetrix, U.S.A) in the fluid station (Affymetrix, U.S.A).
Data obtained were analyzed using the MAS 5.0 model base. A detection call was calculated for all probe sets, representing if the transcript of a particular gene was present or absent, all absent genes were excluded from analysis.
To verify outliers and trends in data exploratory analysis was made with principle component analysis (PCA). Statistic analysis was made using student's t-test. It weights the variance in individual groups with the variance in all groups. Student's t-test was used to test for statistical significance compared with control. The p-value obtained describes the probability of statistically finding a false positive probe set. Fold change (fc) represents the quotient between the two compared chip.
The average signal value from all treated groups were compared with control signals.
All probe sets with signal value<50 in all groups were excluded from analysis. […] The remaining probe sets were ranked after fc.

**Q.** What does the source list for “albumin: Albumin human A9511, Sigma Aldrich; non allergenic protein”?
**A.** Number of up regulated genes (cut off fc >2): 4; Number of up regulated genes (cut off fc >4): 1; Number of up regulated genes (cut off fc >6): 0; Number of up regulated genes (cut off fc >10): 0; vs ctrl fc, GNB2 (gene GNB2): 3.0; vs ctrl fc, IFITM3 (gene IFITM3): 2.7; vs ctrl fc, SPR (gene SPR (Sepiapterin reductase)): 4.3; vs ctrl fc, XK (gene XK): 3.0
